According to US9291621B2, “AGER-peptides and use thereof” (AbbVie Deutschland GmbH & Co. KG, priority 2005, dated 2016):

How the values were obtained:
[1] = molecular target: T1, sRAGE-6×HIS (amino acids 23-352, NP_001127) (Homo sapiens, UniProt Q15109); experiment: AlphaScreen measurement of peptide binding to sRAGE; conditions: biotinylated peptide 0-300 nM, sRAGE-6×HIS 2.5 ng/μl
T1 construct: fusion protein sRAGE-6×HIS (amino acids 23-352, NP_001127); made in house
Protocol: The binding of NtermR31 or NtermR13 to the RAGE receptor was measured by employing the AlphaScreen™ System (order number: 6760610M) from Perkin Elmer (Shelton, Conn., USA).
The entire homogeneous assay was carried out in 25 mM HEPES, 100 mM NaCl of pH 7.4 and 0.1% BSA in a volume of 20 μl. The mixture comprised 2.5 ng/μl of the fusion protein sRAGE-6×HIS (amino acids 23-352, NP_001127), 20 ng/μl of anti-HIS acceptor beads, 20 ng/μl streptavidin donor beads and NtermR13 or NtermR31 peptides in the concentrations of 0, 1, 5, 10, 25, 50, 100, 150 and 300 nM.
The individual components were brought together in a defined time sequence. […] The various amounts of peptide were then added in order, after a further 30 minutes, to add the donor beads. After a further 60 minutes, the fluorescence was measured in the AlphaQuest instrument from Perkin-Elmer with a time lag of one second. Each measured point was determined as triplicate. […]
The binding to the RAGE receptor was measured by employing the AlphaScreen™ System (order number: 6760610M) from Perkin Elmer (Shelton, Conn., USA). […]
The individual components were brought together in a defined time sequence. […] After a further 60 minutes, the fluorescence was measured in the AlphaQuest instrument from Perkin-Elmer with a time lag of one second. Each measured point was determined as triplicate. […]

[2] = molecular target: T2, Nogo receptor (His-NogoR coated on microtiter plate) (Homo sapiens, UniProt Q9BZR6); experiment: AP-Nogo66 competition assay; conditions: AP-Nogo66 0.1 nM; competitor 1.2-100 nM; read-out: IC50, blocking of AP-Nogo66 binding to NgR
T2 construct: soluble His-NogoR; Myc (C); made in house; host or cells: CHO-K1
T2 sequence (Q9BZR6 27-447 limits assumed): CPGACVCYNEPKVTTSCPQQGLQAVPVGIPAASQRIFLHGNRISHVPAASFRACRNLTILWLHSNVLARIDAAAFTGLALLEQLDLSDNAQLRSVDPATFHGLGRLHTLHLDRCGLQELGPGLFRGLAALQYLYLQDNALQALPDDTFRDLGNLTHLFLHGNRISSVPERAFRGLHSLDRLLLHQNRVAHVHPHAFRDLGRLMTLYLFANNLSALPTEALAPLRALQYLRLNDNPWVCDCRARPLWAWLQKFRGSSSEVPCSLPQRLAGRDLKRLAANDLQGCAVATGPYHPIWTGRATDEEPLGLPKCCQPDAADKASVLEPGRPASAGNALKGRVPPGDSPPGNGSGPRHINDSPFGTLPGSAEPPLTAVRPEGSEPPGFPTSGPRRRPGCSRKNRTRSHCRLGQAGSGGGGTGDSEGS
Protocol: This was followed by a blocking step for 1 hour with 2% strength bovine serum albumin (BSA) in Tris-HCl, pH 7.2, at room temperature. […] These stock solutions were then diluted three-fold.
After each incubation step, the plates were washed with washing buffer (10 mM Tris-HCl, pH 7.2 and 0.05% Tween20).

QNITARIGEPLVLKCKGAPKKPPQRLEWKLN [NtermR31]
EC50 [1]: 62 nM
IC50 [2]: 50 nM
